# Patent US6903117B2, “Indole derivatives for the treatment of osteoporosis” (Nikem Research S.R.L., priority 1996, dated 2005)
# Sequences of proteins named here, by UniProt entry; tags and fusion partners are left off. Residues count along the entry.
# UniProt A0A8V0Z1D5, 1-154: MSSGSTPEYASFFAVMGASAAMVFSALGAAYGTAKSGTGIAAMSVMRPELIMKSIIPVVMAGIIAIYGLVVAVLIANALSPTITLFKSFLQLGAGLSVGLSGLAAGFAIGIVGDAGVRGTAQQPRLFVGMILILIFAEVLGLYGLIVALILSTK
# UniProt Q9I8C8, 1-837: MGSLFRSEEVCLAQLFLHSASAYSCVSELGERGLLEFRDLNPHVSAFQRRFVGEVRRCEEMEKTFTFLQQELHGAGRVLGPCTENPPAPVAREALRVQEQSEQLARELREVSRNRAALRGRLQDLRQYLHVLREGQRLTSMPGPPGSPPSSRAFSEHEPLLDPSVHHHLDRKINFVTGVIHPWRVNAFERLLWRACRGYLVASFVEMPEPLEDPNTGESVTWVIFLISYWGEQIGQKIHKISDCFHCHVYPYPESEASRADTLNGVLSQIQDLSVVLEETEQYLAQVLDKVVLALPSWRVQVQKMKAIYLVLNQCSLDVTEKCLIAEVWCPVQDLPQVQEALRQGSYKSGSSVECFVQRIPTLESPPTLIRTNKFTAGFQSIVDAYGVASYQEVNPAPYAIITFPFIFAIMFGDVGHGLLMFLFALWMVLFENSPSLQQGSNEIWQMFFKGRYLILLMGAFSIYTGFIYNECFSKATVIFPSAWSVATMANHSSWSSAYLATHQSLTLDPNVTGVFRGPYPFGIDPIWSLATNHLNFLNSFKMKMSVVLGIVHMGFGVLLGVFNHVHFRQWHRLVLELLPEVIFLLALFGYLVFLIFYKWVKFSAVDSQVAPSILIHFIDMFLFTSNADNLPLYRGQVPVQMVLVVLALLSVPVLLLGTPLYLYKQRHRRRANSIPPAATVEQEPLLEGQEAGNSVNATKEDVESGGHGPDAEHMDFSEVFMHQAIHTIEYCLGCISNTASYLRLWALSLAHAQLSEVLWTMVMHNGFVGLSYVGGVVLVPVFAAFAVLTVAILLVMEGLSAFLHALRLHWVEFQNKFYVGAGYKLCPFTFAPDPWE
# UniProt Q90647, whole entry partner: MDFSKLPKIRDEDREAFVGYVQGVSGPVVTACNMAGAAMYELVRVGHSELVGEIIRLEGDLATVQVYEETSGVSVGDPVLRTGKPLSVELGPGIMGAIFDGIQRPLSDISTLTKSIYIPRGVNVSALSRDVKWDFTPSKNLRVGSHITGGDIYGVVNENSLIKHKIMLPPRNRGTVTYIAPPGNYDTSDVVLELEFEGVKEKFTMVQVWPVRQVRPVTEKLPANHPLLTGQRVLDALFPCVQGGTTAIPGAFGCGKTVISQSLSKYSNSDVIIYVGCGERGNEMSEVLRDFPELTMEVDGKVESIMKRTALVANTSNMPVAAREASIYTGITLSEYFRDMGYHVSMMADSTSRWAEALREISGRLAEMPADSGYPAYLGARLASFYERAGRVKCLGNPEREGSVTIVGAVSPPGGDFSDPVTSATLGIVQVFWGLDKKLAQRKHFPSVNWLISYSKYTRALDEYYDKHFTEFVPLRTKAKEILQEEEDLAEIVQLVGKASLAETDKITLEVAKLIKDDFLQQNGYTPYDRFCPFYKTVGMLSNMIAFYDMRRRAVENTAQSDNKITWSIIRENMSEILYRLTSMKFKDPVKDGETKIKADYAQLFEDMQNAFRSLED
# UniProt Q5ZHL0, whole entry partner: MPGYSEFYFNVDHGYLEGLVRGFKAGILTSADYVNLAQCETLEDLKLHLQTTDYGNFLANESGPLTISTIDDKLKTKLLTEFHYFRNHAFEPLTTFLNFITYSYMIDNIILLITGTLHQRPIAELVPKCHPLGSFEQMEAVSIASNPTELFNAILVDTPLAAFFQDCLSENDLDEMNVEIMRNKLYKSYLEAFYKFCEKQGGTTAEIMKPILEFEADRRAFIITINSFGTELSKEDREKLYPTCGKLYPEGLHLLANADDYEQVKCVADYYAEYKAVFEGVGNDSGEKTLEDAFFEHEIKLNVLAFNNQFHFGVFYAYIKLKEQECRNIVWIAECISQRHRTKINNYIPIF
# UniProt P49712, whole entry partner: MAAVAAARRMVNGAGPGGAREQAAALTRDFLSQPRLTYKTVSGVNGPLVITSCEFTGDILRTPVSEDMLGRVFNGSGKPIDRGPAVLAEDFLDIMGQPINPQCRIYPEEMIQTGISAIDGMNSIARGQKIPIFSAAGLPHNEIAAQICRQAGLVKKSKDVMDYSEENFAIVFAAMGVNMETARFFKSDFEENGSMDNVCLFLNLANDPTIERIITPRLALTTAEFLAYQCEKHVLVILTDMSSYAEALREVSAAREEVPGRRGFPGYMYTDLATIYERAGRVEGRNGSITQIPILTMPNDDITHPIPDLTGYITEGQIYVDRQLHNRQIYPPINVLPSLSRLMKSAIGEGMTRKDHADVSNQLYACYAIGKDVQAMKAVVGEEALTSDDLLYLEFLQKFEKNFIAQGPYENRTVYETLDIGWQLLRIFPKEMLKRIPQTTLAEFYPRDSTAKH
# Target: bafilomycin-sensitive ATPase in chicken osteoclasts (Gallus gallus, UniProt A0A8V0Z1D5+Q9I8C8)
# Test: Inhibition of bafilomycin-sensitive ATPase in chicken osteoclasts
# Conditions: read-out: IC50 (nM) ATPase assay, chicken osteoclast membranes
# Description: Vesicles were prepared from medullar bone obtained from tibiae and femurs of egg-laying hens which were calcium-starved for at least 15 days. Briefly, bone fragments were scraped with a 24 scalpel blade, suspended in 40 ml of isolation medium (0.2 M sucrose, 50 mM KCl, 10 mM Hepes, 1 mM EGTA, 2 mM dithiotheitrol, pH 7.4) and filtered through a 100 μm pore size nylon mesh. The whole procedure was performed at 4° C. After homogenisation in a potter (20 strokes) in 40 ml of isolation medium an initial centrifugation (6,500×gmax×20 min) was performed to remove mitochondria and lysosomes. The supernatant was centrifuged at 100,000×gmax for 1 hr and the pellet was collected in 1 ml of isolation medium, divided into 200 μl aliquots, immediately frozen in liquid nitrogen and stored at −80° C. The protein content was determined using a Biorad colourimetric kit according to Bradford [M. Bradford, Anal. Biochem., 72, 248 (1976)]. […]
# Inhibition of bafilomycin-sensitive ATPase activity was assessed in purified membrane vesicles by measuring the release of inorganic phosphate (Pi) during 30 min of incubation at 37° C. in a 96-well plate either in the presence or in the absence of bafilomycin A1. […] Absorbance at 650 nm was measured after 2 min using a microplate reader. Results are expressed as μmol (Pi)×mg protein^−1×hour^−1 and, for each experiment, represent the mean±sem of triplicates.
smiles,measurement,value
CO/C(=C\C=C\c1cc2cc(Cl)c(Cl)cc2[nH]1)C(=O)NC1C[C@@H](C)N(CCO)[C@@H](C)C1 (stereo partly shown),IC50,24 nM
